Patent publication US5981576A, “(Methylsulfonyl)phenyl-2-(5H)-furanones as COX-2 inhibitors” (Merck Frosst Canada, Inc., priority 1998, dated 1999)
Read-outs that look alike come from different tables or passages of the source.

Sequences of proteins named here, by UniProt entry; tags and fusion partners are left off. Residues count along the entry.
UniProt P23219, 24-599: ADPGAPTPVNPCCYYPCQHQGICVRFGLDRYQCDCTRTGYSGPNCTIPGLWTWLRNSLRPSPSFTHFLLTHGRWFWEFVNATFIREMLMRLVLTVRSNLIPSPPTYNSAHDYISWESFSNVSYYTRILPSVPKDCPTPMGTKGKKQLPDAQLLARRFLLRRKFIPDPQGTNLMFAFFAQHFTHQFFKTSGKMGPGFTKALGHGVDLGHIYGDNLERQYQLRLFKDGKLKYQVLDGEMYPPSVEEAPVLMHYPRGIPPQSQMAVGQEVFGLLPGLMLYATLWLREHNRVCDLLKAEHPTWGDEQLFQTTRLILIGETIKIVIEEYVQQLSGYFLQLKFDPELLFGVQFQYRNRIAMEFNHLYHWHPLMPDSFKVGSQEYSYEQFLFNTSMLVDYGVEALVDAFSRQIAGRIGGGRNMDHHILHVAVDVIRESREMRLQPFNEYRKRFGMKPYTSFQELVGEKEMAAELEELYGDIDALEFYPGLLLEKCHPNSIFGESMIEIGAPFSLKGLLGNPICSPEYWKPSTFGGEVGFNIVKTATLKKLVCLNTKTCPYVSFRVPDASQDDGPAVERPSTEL

Target: COX-1 (Homo sapiens, UniProt P23219)
Assay: biochemical

IC50 (Table III, U937, read-out: COX-1 (IC50) U937) [nM] | IC50 [nM] | SMILES
> 30000 |  | CC1(C)OC(=O)C(Sc2ccccc2)=C1c1ccc(S(C)(=O)=O)cc1 [Example 11, 3-Phenylthio-5,5-dimethyl-4-(4-(methylsulfonyl)phenyl)-5H-furan-2-one]
 | 1000 | CS(=O)(=O)c1ccc(C2=C(Oc3ccccc3)C(=O)CC2)cc1 [Example 29, 3-(4-(Methylsulfonyl)phenyl)-2-phenoxycyclopent-2-enone]
